Drawing on patent publication US20250248993A1, “CAMPTOTHECIN DERIVATIVES THAT BIND TO DDX5 PROTEIN AND PRODRUGS THEREOF” (priority 2022, published 2025), this text covers tumor volume for one substance.

The subject of this experiment is JIMT-1 breast cancer cells. The experiment can be described thus: In vivo efficacy, JIMT-1 xenograft mouse model. Further details: species or system BALB/c nude mice.

Consider Enhertu [reference compound], for which the tumor volume (3 mg/kg i.v. twice (day 0, day 6), 6 + 0 days) is 175.58 mm^3; the tumor volume (3 mg/kg i.v. twice (day 0, day 6), 6 + 3 days) is given as 295.80 mm^3; the tumor volume (3 mg/kg i.v. twice (day 0, day 6), 6 + 7 days) is on record as 325.74 mm^3; the tumor volume (3 mg/kg i.v. twice (day 0, day 6), 6 + 10 days) is given as 354.87 mm^3; the tumor volume (3 mg/kg i.v. twice (day 0, day 6), 6 + 14 days) was 405.93 mm^3; the tumor volume (10 mg/kg i.v. twice (day 0, day 6), 6 + 0 days) is on record as 175.87 mm^3. The tumor volume is, setting by setting: (10 mg/kg i.v. twice (day 0, day 6), 6 + 3 days) 270.11 mm^3; (10 mg/kg i.v. twice (day 0, day 6), 6 + 7 days) 254.45 mm^3; (10 mg/kg i.v. twice (day 0, day 6), 6 + 10 days) 249.13 mm^3; (10 mg/kg i.v. twice (day 0, day 6), 6 + 14 days) 249.18 mm^3.
